Source: EPA's ToxValDB 9.5

Experiments:
Rattus norvegicus [1] = details: acute; oral
Oryctolagus sp. = details: acute; dermal
Rattus norvegicus [2] = details: short-term; duration: 28 days; oral; gavage; M; Sprague-Dawley; Clinical Observation: Locomotor activity decrease, Respiratory rate decrease, Incomplete eyelid opening Emaciation + Functional …

Structure (SMILES): CCC(C)(C)c1ccc(O)cc1 [4-(2-Methylbutan-2-yl)phenol]
- LD50 (Rattus norvegicus [1]): 1830 mg/kg

Structure (SMILES): CCCCCCO [1-Hexanol]
- LD50 (Oryctolagus sp.): 3100 mg/kg

Structure (SMILES): Nc1ccc(Cc2ccc(N)c(Cl)c2)cc1Cl [4,4'-Methylenebis(2-chloroaniline)]
- LD50 (Rattus norvegicus [1]): 1140 mg/kg

Structure (SMILES): [K+].[O-][Br+2]([O-])[O-] [Potassium bromate]
- NOAEL (Rattus norvegicus [2]): 20 mg/kg-day
- NOEL (Rattus norvegicus [2]): < 20 mg/kg-day
